Results taken from patent US10829473B2, “Modulators of the cystic fibrosis transmembrane conductance regulator protein and methods of use” (AbbVie Overseas S.Á.R.L., priority 2017, dated 2020).
Where two headings read alike, the source gives them in different places.

Protein sequences, listed by entry. Tags and fused reporters are not part of them. Chains listed by the source or under a name are the forms on record and can include a tag or linker.
UniProt P13569, with tags, fused parts or gaps DEL508-508: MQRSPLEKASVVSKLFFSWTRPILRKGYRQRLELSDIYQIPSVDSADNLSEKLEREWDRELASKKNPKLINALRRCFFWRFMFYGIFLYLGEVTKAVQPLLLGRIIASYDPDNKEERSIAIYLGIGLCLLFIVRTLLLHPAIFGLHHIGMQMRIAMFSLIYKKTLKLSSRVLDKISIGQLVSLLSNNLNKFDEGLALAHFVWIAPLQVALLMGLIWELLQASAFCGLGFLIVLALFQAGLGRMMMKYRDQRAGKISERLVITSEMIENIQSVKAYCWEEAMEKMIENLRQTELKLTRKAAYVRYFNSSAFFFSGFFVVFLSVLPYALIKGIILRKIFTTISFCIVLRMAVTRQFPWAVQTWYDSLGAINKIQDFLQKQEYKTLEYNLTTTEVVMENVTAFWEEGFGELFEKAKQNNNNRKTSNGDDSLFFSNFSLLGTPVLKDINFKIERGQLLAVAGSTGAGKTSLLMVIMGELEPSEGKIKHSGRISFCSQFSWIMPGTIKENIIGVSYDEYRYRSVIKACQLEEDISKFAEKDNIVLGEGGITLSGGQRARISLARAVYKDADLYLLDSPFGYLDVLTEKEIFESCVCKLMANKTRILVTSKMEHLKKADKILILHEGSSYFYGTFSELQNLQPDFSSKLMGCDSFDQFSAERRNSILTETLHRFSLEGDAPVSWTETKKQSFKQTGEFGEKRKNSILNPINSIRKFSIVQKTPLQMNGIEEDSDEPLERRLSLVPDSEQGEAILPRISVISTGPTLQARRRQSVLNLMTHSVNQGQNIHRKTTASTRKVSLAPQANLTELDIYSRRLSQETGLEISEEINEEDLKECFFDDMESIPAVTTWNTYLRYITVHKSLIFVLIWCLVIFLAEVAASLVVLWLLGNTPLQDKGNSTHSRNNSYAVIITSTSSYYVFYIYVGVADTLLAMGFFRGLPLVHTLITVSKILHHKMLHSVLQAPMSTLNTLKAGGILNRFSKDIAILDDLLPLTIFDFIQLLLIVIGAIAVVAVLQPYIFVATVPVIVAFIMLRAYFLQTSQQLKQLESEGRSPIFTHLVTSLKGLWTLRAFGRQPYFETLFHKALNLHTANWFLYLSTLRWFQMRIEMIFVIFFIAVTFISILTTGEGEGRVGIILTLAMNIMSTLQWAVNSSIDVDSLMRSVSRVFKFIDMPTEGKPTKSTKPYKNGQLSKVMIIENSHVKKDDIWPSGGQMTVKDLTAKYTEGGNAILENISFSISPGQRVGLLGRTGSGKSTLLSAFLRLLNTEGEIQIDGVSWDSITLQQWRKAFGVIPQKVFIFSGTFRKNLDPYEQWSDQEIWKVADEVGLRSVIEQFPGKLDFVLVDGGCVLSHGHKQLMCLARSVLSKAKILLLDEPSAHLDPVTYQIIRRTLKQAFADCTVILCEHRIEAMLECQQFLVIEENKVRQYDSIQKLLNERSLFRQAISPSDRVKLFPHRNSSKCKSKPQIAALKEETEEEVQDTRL

Target: F508delCFTR (Homo sapiens, UniProt P13569, DEL508-508)
Assay: Cell Surface Expression-Horse Radish Peroxidase (CSE-HRP) Assay
Assay type: cell-based
Procedure: A cellular assay for measuring the F508delCFTR cell surface expression after correction with test compounds either without or with a co-corrector (2 μM of 3-[(2R,4R)-4-({[1-(2,2-difluoro-1,3-benzodioxol-5-yl)cyclopropyl]carbonyl}amino)-7-methoxy-3,4-dihydro-2H-chromen-2-yl]benzoic acid), was developed in human lung derived epithelial cell line (CFBE4lo−) (Veit G et al, (2012) Mol Biol Cell. 23(21): 4188-4202). The development was achieved by expressing the F508delCFTR mutation along with a horseradish peroxidase (HRP) in the fourth exofacial loop, and then measuring the HRP activity using luminescence readout from these cells, CFBE410-F508delCFTR-HRP, that were incubated overnight with the test corrector compounds, either without or with the co-corrector. […] Post incubation, the plates were washed 5× times with Dulbecco's phosphate buffered saline (DPBS), followed by the addition of the HRP substrate, luminol (50 4), and measuring the HRP activity using luminescence readout on EnVision® Multilabel Plate Reader (Perkin Elmer; product number 2104-0010). The raw counts from the experiment were analyzed using Accelrys® Assay Explorer v3.3. […]

- EC50 (read-out: EC50 (with co-corrector), with co-corrector): < 3000 nM
- EC50 (read-out: EC50 (without co-corrector), test compound alone, without co-corrector): < 3000 nM
SMILES: COc1ccc(C2CCC2)cc1C1(C(=O)NS(=O)(=O)c2cccc3nc(C)ccc23)CCC1 [Example I-33, 1-(5-cyclobutyl-2-methoxyphenyl)-N-(2-methylquinoline-5-sulfonyl)cyclobutane-1-carboxamide]
